Values quoted from earlier work in patent US20230414560A1, “COMPOSITIONS AND METHODS FOR TREATING ECZEMA” (General Nutraceutical Technology LLC, priority 2022, published 2023).

Conditions: TCMSP database, Table 1; cited from earlier work

In the case of indirubin, the “O.B. (oral bioavailability)” value is listed as 48.59.
